Screens: PubChem BioAssay, Broad Institute
Glyco luc inh – increase of ERlucT glycosylation luciferase signal, primary screen, N-linked glycosylation inhibitor project, D54 ERlucT cells, luminescence, set 2 | reporter increase, % at 12.5 µM | hit rate 0.23% among 360,000 | D54 ERlucT glycosylation luciferase reporter, 24 h; percent of 100 nM tunicamycin response;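 active = mean luciferase reporter signal, scaled so untreated is 0 and the glycosylation-blocking control 100, at or above a set limit in every replicate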;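 also: luciferase carries N-glycosylation sites so blocking glycosylation raises the light; 0% = median of neutral control wells and 100% = median of 100 nM tunicamycin wells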
C2C12 statin – suppressors of statin myotoxicity in C2C12 myotubes, primary screen, cell-based, single point, plate reader | C2C12 myotubes + simvastatin, ATP luminescence, 48 h; scaled: DMSO 0, geranylgeraniol control 100 | rescue of ATP level, % at 7.49 µM | hit rate 0.78% among 330,000 | AID 602340, 2012;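 active = mean ATP rescue above about 67%, or every replicate alone reaching that limit, limit read from the data, passing the limit was not always enough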;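 also: myotubes were challenged with 10 µM simvastatin during compound exposure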
Yeast UUG start – modulators of start codon recognition fidelity in yeast; S. cerevisiae UUG-firefly luciferase reporter, luminescence/redox ratio; AID 602363; 350,000 tested, 0.13% active; activity score, % at 18.7 µM;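 active = replicate mean at a twofold rise or more, about +100% in these data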;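 also: firefly luciferase made from a UUG start codon reports start codon fidelity; reporter light over untreated wells divided by growth signal over untreated wells; some hits fall short of that in this replicate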
Cneo AK release – Cryptococcus neoformans cell lysis inducers, primary screen, AK release luminescence, single concentration | C. neoformans lysis, adenylate kinase release luminescence, 4 h; normalised: neutral wells 0, clomiphene wells 100 | lysis activity, % at 15 µM | hit rate 0.2% among 360,000;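 active = mean lysis activity across replicates of at least 80%, whatever share of replicates individually reach that level; inactive = mean lysis activity below 80%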
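Assay system: C. neoformans cells. Amount: yeast cell density of 5 × 10^6 cells/mL. Technique: AK luminescence. Buffer or medium: YPD. Times: static 4 h at 37 °C with compound, 1 h detection. Dosing: single-point compound dose. Read-out: lysis from increased AK signal.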
miR-122 sensor – miR-122 Renilla sensor signal increase in Huh7, primary screen, miR-122 inhibitor project, cell-based, single point, plate reader; Huh7 miR-122 Renilla luciferase sensor, 48 h; neutral wells = 0, positive control = 100; hit rate 0.3% among 340,000; AID 602342, 2012; activation (reporter increase), % at 12.5 µM;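 active = mean replicate activation score at least 90 and every replicate individually at or above 90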;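 also: higher luciferase means less miR-122 activity so hits act as miR-122 inhibitors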
Starred values were filed as active, the others as inactive; nt = no result; [ ] = dose if it differs, or a comment. In the library only some 1.2% were active in any assay of this set; here they are far more common.

Every second line gives: Glyco luc inh	C2C12 statin	Yeast UUG start	Cneo AK release	miR-122 sensor
- Cc1nn(C)c(C)c1NC(=O)c1ccnn1C
 : 3	-4	1	0	3
- COc1ccc(S(=O)(=O)Nc2ccc3c(c2)C(=O)N([C@@H](C)CO)C[C@@H](C)[C@@H](CN(C)Cc2ccc4c(c2)OCO4)OCCCC[C@H](C)O3)cc1
 : nt	90*	9	2	-6[16.7 µM]
- C[C@@H]1CN([C@@H](C)CO)C(=O)c2cc(NS(=O)(=O)c3ccc(F)cc3)ccc2O[C@@H](C)CCCCO[C@@H]1CN(C)Cc1ccc2c(c1)OCO2
 : nt	nt	35	99*	-10[16.7 µM]
- C[C@@H]1CN([C@H](C)CO)C(=O)c2cc(NS(=O)(=O)c3ccc(F)cc3)ccc2O[C@@H](C)CCCCO[C@H]1CN(C)Cc1ccc2c(c1)OCO2
 : nt	nt	13	12	-13[16.7 µM]
- C[C@H]1CN([C@@H](C)CO)C(=O)c2cccc(NC(=O)Nc3ccccc3)c2O[C@@H]1CN(C)S(=O)(=O)c1cccs1
 : nt	nt	nt	nt	-6[16.7 µM]
- CCOc1ccc(-c2cccc(NS(=O)(=O)c3cc([N+](=O)[O-])ccc3C)c2)nn1
 : 0	8	0	-1	130*
- O=S(=O)(c1ccc(F)cc1)N1CC[C@@H]2[C@H]1c1cc(-c3ccc(F)cc3)ccc1N[C@@H]2CO
 : nt	33	-14	-18	-12[16.7 µM]
- O=C(CSc1ccc(Cl)cc1)OCc1nnc(-c2ccccc2)o1
 : 1	69*	-11	0	-3
- COc1cc(CCC(=O)OCc2nnc(-c3ccccc3)o2)cc(OC)c1OC
 : 1	104*	-2	-2	1
- C[C@H]1CN([C@@H](C)CO)C(=O)c2cc(NC(=O)Cc3cn(C)c4ccccc34)ccc2O[C@H]1CN(C)Cc1ccc(C(=O)O)cc1
 : nt	-5	-7	1	0[16.7 µM]
- CCS(=O)(=O)Nc1ccc2c(c1)C(=O)N(C)C[C@H](OC)[C@@H](C)CN(C)[C@@H](C)CO2
 : nt	-3	-6	-1	-4[16.7 µM]
- COc1cccc(C2(c3cccc(OC)c3)CC2C(=O)Nc2ccccc2Cl)c1 (stereo not drawn)
 : -4	nt	-10	0	67
- COc1cccc(C2(c3cccc(OC)c3)CC2C(=O)Nc2ccc(F)cc2)c1 (stereo not drawn)
 : -2	nt	-7	-1	108*
- COc1ccc(-c2c(C#N)c(N)nc3c2c(=O)n(C)c(=O)n3C)cc1
 : 2	2	-17	4	-2
- CCOc1ccc(-c2c(C#N)c(N)nc3c2c(=O)n(C)c(=O)n3C)cc1OC
 : 10	84*	-4	-4	1
- Clc1ccc(C[n+]2csc3ccccc32)cc1
 : 4	nt	nt	nt	nt
- Fc1ccc(C[n+]2csc3ccccc32)cc1
 : 4	74*	-5	-2	-1
- CC(C)Cc1nc2sc3c(=O)[nH]cnc3c2c2c1CCC2
 : 3	3	-9	6	126*
- O=C(CN1CCOCC1)N1[C@H](CO)[C@H]2c3ccccc3NC[C@H]21
 : nt	17	-9	-3	29[16.7 µM]
- COc1ccc(S(=O)(=O)Nc2cc(Cl)ccc2OC)cc1
 : 9	-49	-4	3	138*
- CCc1ccc(OC)c(S(=O)(=O)Nc2ccccc2C)c1
 : -2	-2	-15	6	115*
- COc1ccc(C)cc1S(=O)(=O)Nc1ccccc1C
 : 0	24	-9	3	74
- COc1ccc(OC)c(NS(=O)(=O)c2ccc(N3CCCC3=O)cc2)c1
 : 19	nt	5	1	120*
- COc1ccc(C)cc1S(=O)(=O)Nc1cc(Cl)ccc1Cl
 : -1	35	-4	0	215*
- CN1C(=O)c2cc(NS(=O)(=O)c3cccc(F)c3)ccc2OC[C@H]2O[C@@H](CC(=O)N3CCc4ccccc4C3)CC[C@H]21
 : nt	1	nt	0	-10[16.7 µM]
- CO[C@H]1CN(C)C(=O)c2cc(NC(=O)Nc3ccccc3F)ccc2OC[C@@H](C)N(C(C)=O)C[C@@H]1C
 : nt	2	nt	-6	nt
- O=C(NN1C(=O)c2ccccc2C1=O)C1CCCCC1
 : 2	100*	-24	2	7
- O=c1[nH]c(=S)c2[nH]c(=S)n(-c3ccccc3)c2[nH]1
 : 0	99*	-14	2	-6
- CC(C)CNC(=O)c1ccc(COc2ccc(Cl)cc2Cl)o1
 : 0	-14	8	7	-8
